# Ab-95 light chain CDR variants: yeast mating affinities

Values reported by Engelhart et al. 2022, doi:10.1038/s41597-022-01779-4 (FLAb copy).

Binding partner: SARS-CoV-2 spike HR2 peptide, sequence PDVDLGDISGINAS.

Parent scFv Ab-95: VH joined to VL by the linker GGGGSGGGGSGGGGS. Changes lie in the light chain CDRs alone.
VH: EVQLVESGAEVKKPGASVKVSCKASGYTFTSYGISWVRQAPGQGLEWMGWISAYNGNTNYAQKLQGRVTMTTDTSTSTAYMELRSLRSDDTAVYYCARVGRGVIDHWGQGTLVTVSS
VL: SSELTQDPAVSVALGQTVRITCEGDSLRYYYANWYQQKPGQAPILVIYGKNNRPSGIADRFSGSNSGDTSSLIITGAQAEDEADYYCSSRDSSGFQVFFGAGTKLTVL

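Phage display of a naive human antibody library on the peptide gave the parent. The library (AAYL52) carries one to three amino acid substitutions per variant, with no insertions or deletions. AlphaSeq pools MATa yeast showing the antibodies with MATalpha yeast showing the peptide. The frequency of each diploid, read from paired DNA barcodes, reflects how well the two displayed proteins bind. Scores were corrected for input abundance and mapped to Kd with protein pairs of known affinity run in the same pool. There are three technical replicates.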

Variants are written as CDR1, CDR2 and CDR3 of the light chain (limits as in the source). Parent: EGDSLRYYYAN, GKNNRPS, SSRDSSGFQVF. The read-out is the apparent dissociation constant on a log10 scale (nM): the lower, the stronger. Where no diploid with the target was found in that replicate, the entry reads "n.d.": below detection, most likely a poor binder, though not proof of it.

{"CDR-L1": "EGKSLGYYYAN", "CDR-L2": "GKNNRPS", "CDR-L3": "SSRDSSGHQVF", "replicates, log10 nM": "n.d. n.d. n.d.", "signal with controls": "0/9"}
{"CDR-L1": "EGDSLRYRYAN", "CDR-L2": "GKNNRPQ", "CDR-L3": "SSRVSSGFQVF", "replicates, log10 nM": "5.41 n.d. n.d.", "signal with controls": "1/9 (4.42)"}
{"CDR-L1": "EGDSLRYYYAN", "CDR-L2": "GKNNVWS", "CDR-L3": "SSRDSSGFQVF", "replicates, log10 nM": "3.54 4.05 3.76", "signal with controls": "2/9 (4.40)"}
{"CDR-L1": "EGDSLRYYYAN", "CDR-L2": "GKMNRLS", "CDR-L3": "SSRDSPGFQVF", "replicates, log10 nM": "n.d. n.d. 3.86", "signal with controls": "4/9 (3.83)"}
{"CDR-L1": "EGDSLRYYYEN", "CDR-L2": "GKNNRPS", "CDR-L3": "SSRDSSYEQVF", "replicates, log10 nM": "n.d. 3.79 n.d.", "signal with controls": "2/9 (4.33)"}
{"CDR-L1": "EGDSLRYYYAN", "CDR-L2": "GKEIRPS", "CDR-L3": "SSRDSSGFQVF", "replicates, log10 nM": "3.41 3.26 3.99", "signal with controls": "3/9 (3.42)"}
{"CDR-L1": "SGDSLRYYYAN", "CDR-L2": "GKNNLPS", "CDR-L3": "SSRDVSGFQVF", "replicates, log10 nM": "2.56 2.61 3.86", "signal with controls": "3/9 (4.46)"}
{"CDR-L1": "RGDSLRYYYAN", "CDR-L2": "GGNNRPS", "CDR-L3": "SSRDSSGFQVF", "replicates, log10 nM": "1.75 1.60 1.46", "signal with controls": "3/9 (3.79)"}
{"CDR-L1": "EGDNLRYYYAN", "CDR-L2": "GKNNRPS", "CDR-L3": "SSRDSSGFQVF", "replicates, log10 nM": "2.70 2.69 3.65", "signal with controls": "3/9 (3.68)"}
{"CDR-L1": "EGDSNRYYYAN", "CDR-L2": "GKNNRPS", "CDR-L3": "SSRDSLGFQVC", "replicates, log10 nM": "4.06 3.48 2.94", "signal with controls": "1/9 (3.57)"}
{"CDR-L1": "EGDSLRYYYAN", "CDR-L2": "EKNNRPH", "CDR-L3": "SSRDSSGFQVF", "replicates, log10 nM": "3.46 3.37 2.22", "signal with controls": "3/9 (3.84)"}
{"CDR-L1": "EGQSLRYPYAN", "CDR-L2": "GKNNRPS", "CDR-L3": "SSRDSSGFQRF", "replicates, log10 nM": "2.67 2.28 1.31", "signal with controls": "7/9 (3.70)"}
{"CDR-L1": "EGDSLRYYYAN", "CDR-L2": "GKNNRPS", "CDR-L3": "DSRDSSGEQVA", "replicates, log10 nM": "n.d. n.d. n.d.", "signal with controls": "0/9"}
{"CDR-L1": "KGKSLRYYYAN", "CDR-L2": "GKNNRYS", "CDR-L3": "SSRDSSGFQVF", "replicates, log10 nM": "2.47 3.14 3.21", "signal with controls": "1/9 (3.29)"}
{"CDR-L1": "EGDSLRYYNKN", "CDR-L2": "GKNNRPS", "CDR-L3": "SSRDSSGFQVP", "replicates, log10 nM": "3.29 n.d. 2.80", "signal with controls": "2/9 (3.84)"}
{"CDR-L1": "EGDSLRYYYAA", "CDR-L2": "GKNNSPS", "CDR-L3": "SSRDSSGLQVF", "replicates, log10 nM": "3.33 3.49 3.16", "signal with controls": "5/9 (3.75)"}
{"CDR-L1": "EGDSLRYYYAN", "CDR-L2": "GTNNRPS", "CDR-L3": "QSRDESGFQVF", "replicates, log10 nM": "3.13 5.49 n.d.", "signal with controls": "3/9 (3.22)"}
{"CDR-L1": "EGDSLTYYYAN", "CDR-L2": "GKNNNPS", "CDR-L3": "STRDSSGFQVF", "replicates, log10 nM": "2.90 3.72 2.70", "signal with controls": "1/9 (4.30)"}
{"CDR-L1": "EGDSLRYYYAN", "CDR-L2": "GKNNRPP", "CDR-L3": "SSRDSQGFQVF", "replicates, log10 nM": "2.84 2.51 3.10", "signal with controls": "3/9 (3.82)"}
{"CDR-L1": "EGDSLRVFYAN", "CDR-L2": "GLNNRPS", "CDR-L3": "SSRDSSGFQVF", "replicates, log10 nM": "4.33 3.46 4.56", "signal with controls": "3/9 (3.85)"}
{"CDR-L1": "EGDSLRLYYAN", "CDR-L2": "VKNNRPS", "CDR-L3": "SSRDSPGFQVF", "replicates, log10 nM": "n.d. n.d. n.d.", "signal with controls": "1/9 (2.35)"}
{"CDR-L1": "RGDSLRYYYAN", "CDR-L2": "GKNNRGS", "CDR-L3": "SSRDFSGFQVF", "replicates, log10 nM": "2.67 2.32 2.53", "signal with controls": "1/9 (4.98)"}
{"CDR-L1": "EGDSLRIEYKN", "CDR-L2": "GKNNRPS", "CDR-L3": "SSRDSSGFQVF", "replicates, log10 nM": "n.d. n.d. n.d.", "signal with controls": "3/9 (3.86)"}
{"CDR-L1": "TGDSLRYYYAN", "CDR-L2": "GKNNRPS", "CDR-L3": "SSRDSWGFQVF", "replicates, log10 nM": "2.30 2.19 2.36", "signal with controls": "2/9 (3.66)"}
{"CDR-L1": "EGDSLRYYYAV", "CDR-L2": "GKNNRPI", "CDR-L3": "SSRDSSGFTVF", "replicates, log10 nM": "4.39 5.94 n.d.", "signal with controls": "4/9 (4.17)"}
{"CDR-L1": "EGDSLRYYYAN", "CDR-L2": "GKNNRPS", "CDR-L3": "SSDDLSGFHVF", "replicates, log10 nM": "3.62 2.17 4.06", "signal with controls": "4/9 (4.13)"}
{"CDR-L1": "EGDSLRMYYAN", "CDR-L2": "GKNNRPS", "CDR-L3": "SSDDSSGFQWF", "replicates, log10 nM": "2.68 3.12 2.93", "signal with controls": "2/9 (3.62)"}
{"CDR-L1": "EGCSLRYYYAN", "CDR-L2": "GKNNRPS", "CDR-L3": "SSRDSIGFQVA", "replicates, log10 nM": "n.d. n.d. n.d.", "signal with controls": "2/9 (4.00)"}
{"CDR-L1": "EYDSLRYYYAN", "CDR-L2": "GKNNRPS", "CDR-L3": "SSRDSSRFQVQ", "replicates, log10 nM": "2.56 3.02 2.66", "signal with controls": "2/9 (3.16)"}
{"CDR-L1": "EGWSLRYYYAN", "CDR-L2": "GKNNRPS", "CDR-L3": "SSRVSSGFQVI", "replicates, log10 nM": "4.69 4.81 2.62", "signal with controls": "5/9 (4.04)"}

In this assay the parent's reference entry averaged 2.31; its copy inside this library read 2.25. Empty control strains, which show no peptide, gave a signal in 28% of pairings with library AAYL52; the median was 3.91 and 95% of these signals were weaker than 2.90. No background was subtracted. The control count says in how many pairings with the empty strains this scFv gave a signal, with their mean in brackets.